# Results taken from patent US6630316B1, “Method for measurement of lymphocyte function” (priority 1996, dated 2003).
# Test system: T lymphocytes (CD4) in whole blood
# Assay: T cell response to mitogens in a whole blood sample (CD4 separation, ATP luminescence)
# Type: cell-based
# Details: whole blood diluted 1:5, incubated overnight at 37 C; PHA at 1%, IL-2 at 1000 U/ml; control 458,451
substance,measurement,value
IL-2,Relative Light Units,"2,632,415 Relative Light Units"
